Bioassay records from PubChem BioAssay.
In the library only some 16% were active in any assay of this set; here they are far more common.
miR-21 reporter: miR-21 reporter, rising signal; HeLa miR-21 FLuc reporter, luciferase, 48 h; Potency, µM (doses to about 38.3 µM), for inactives: at the highest dose reporter change, positive = more light; 340,000 tested, under 10 active; AID 2288; active = well fitted rising curve with a large enough effect; inconclusive = small, poorly fitted or top-dose-only effect; inactive = no such curve, though single readings can be large or run the other way;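 further: % of control where 0% means no effect; miR-21 action dims this reporter so a rising signal means less miR-21 action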
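Luminescence from a firefly luciferase reporter carrying a miR-21 binding site downstream, stably expressed under a CMV promoter in HeLa cells that make miR-21 endogenously, reports miRNA modulation after 48 h compound exposure up to approximately 40uM final.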
DT40 TDP1 no CPT: qHTS for Inhibitors of human tyrosyl-DNA phosphodiesterase 1 (TDP1): qHTS in cells in absence of CPT | DT40 Tdp1-/- hTDP1 cells, no CPT, ATP luminescence, 48 h | Potency, µM (series often up to 46.2 µM), for the others: top-dose activity change, negative = growth inhibition, actives largely listed as inhibitors | hit rate 15% among 420,000 | AID 686978, 2013; also: potency is read from the fitted curve at half-maximal effect; % is scaled to controls: 0 for no effect and ±100 for the full control effect; nearly all actives have a fitted effect of over 55% in size
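Chicken DT40 Tdp1-/- cells stably complemented with human TDP1 were seeded at 400 cells/well with DMSO in place of 20 nM camptothecin. After compound pinning, cells grew at least 48 hr at 37 °C; viability read by CellTiter-Glo luminescence.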
TDP1 cell CPT: DT40-hTDP1 cell growth loss with CPT; chicken DT40 Tdp1-/-;hTDP1 cells + 20 nM CPT, ATP luminescence, 48 h; Potency, µM (highest dose often 46.2 µM), without a hit: at the highest dose activity change, negative = growth inhibition, hits mostly inhibitors; hit rate 12% among 420,000; AID 686979; also: potency is read from the fitted curve at half-maximal effect; % is scaled to controls: 0 for no effect and ±100 for the full control effect; nearly all actives have a fitted effect of over 55% in size
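Chicken DT40 Tdp1-/- cells stably complemented with human TDP1 were seeded at 400 cells/well in medium containing 20 nM camptothecin, exposed to pin-transferred compounds, and grown at 37 °C for at least 48 hr. Viability was read as ATP luminescence.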
uPA surface inh: blocks generation of uPA at the cell surface; cell surface uPA generation assay, qHTS; Potency, µM (top dose mostly 38.3 µM), for the others: at the top dose activity change, negative = inhibition, actives largely listed as inhibitors; hit rate 0.31% among 330,000; AID 540303; active = well fitted inhibition curve with a large enough effect; inconclusive = small, poorly fitted or top-dose-only effect; inactive = no such curve, though single readings can be large or run the other way; tested in mouse RAW 264.7 cells; also: potency is read from the fitted curve at half-maximal effect; % is scaled to controls: 0 for no effect and ±100 for the full control effect; nearly all actives have a fitted effect of over 55% in size
TDP1 inh: TDP1 (human) enzyme inhibition | Potency, µM (series often up to 130 µM), without a hit: at the top dose activity change, negative = inhibition, hits mostly inhibitors | Q9NUW8 | recombinant TDP1, AlphaScreen DNA substrate cleavage | hit rate 0.28% among 350,000; also: potency is read from the fitted curve at half-maximal effect; % is scaled to controls: 0 for no effect and ±100 for the full control effect; nearly all actives have a fitted effect of over 40% in size
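Recombinant human Tdp1 (E. coli-expressed, 1 nM final) preincubated with compounds 15 min at room temperature, then 5'-biotin/3'-phosphotyrosine-FITC DNA substrate (15 nM final) added for 5 min. AlphaScreen beads (10 ug/ml final) added 10 min; cleavage lowers signal.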
An asterisk follows results filed as active; ? = inconclusive; . = no result; [ ] = another dose, or the depositor's remark. Unless noted, calls follow the shape of the dose curve; as a rule, active = well fitted curve in the direction sought with a large enough effect; inconclusive = small, poorly fitted or top-dose-only effect, or another doubt; inactive = no such curve, though single readings can be large; an effect the other way counts as inactive or inconclusive.

item	compound	miR-21 reporter	DT40 TDP1 no CPT	TDP1 cell CPT	uPA surface inh	TDP1 inh
1	COc1ccc(/C=N/NC(=O)c2ccncc2)cc1CN1CCOCC1	-2%	-9%	-4%	1%	.
2	O=C(N/N=C/c1cccnc1)c1cc(-c2ccc(Cl)cc2)nc2ccccc12	.	8.2µM*	?	?	.
3	COC(=O)C1(C)NC(c2ccc(F)cc2)C2C(=O)N(c3ccc(C)cc3)C(=O)C21 (centres undefined)	-4%	2%	1%	6%	4%
4	NC(=S)N/N=C/c1coc2ccc(O)cc2c1=O	6%	?	?	5%	-2%
5	O=C(N/N=C/c1ccc(Cl)cc1)c1cc(-c2cccnc2)nc2ccccc12	2%	7.3µM*	?	-11%	0%
6	COc1ccccc1C1=NOC(COC(=O)c2ccc([N+](=O)[O-])cc2)C1 (centres undefined)	-1%	-4%	-9%	0%	4%
7	CC(=O)c1ccc(F)c(-c2cc(C)cc3c2OC(CNC(=O)c2csc(C)n2)C3)c1 (centres undefined)	.	21µM*	8%[9.04 µM]	.	.
8	Cc1nc(CC(=O)NCC2Cc3cc(F)cc(-c4ccc(F)c(C)c4)c3O2)cs1 (centres undefined)	.	13µM*	7%[9.04 µM]	.	.
9	Cc1cc(-c2cc(F)cc3c2OC(CNC(=O)[C@@H]2CCC(=O)N2)C3)ccc1F (some centres undefined)	.	-17%	2%[9.04 µM]	.	.
10	CCCN(CC(=O)Nc1ccccc1C)C(=O)CCl	?	2.1µM*	2.6µM*	-10%	6%
11	CCCN(CC(=O)Nc1ccccc1OC)C(=O)c1ccc(COc2ccccc2)o1	.	?	16µM*	-13%	0%
12	CCCN(CC(=O)Nc1ccccc1C)C(=O)COC(=O)CSc1ccc([N+](=O)[O-])cc1	.	0%	-8%	10%	1%
13	CCCN(CC(=O)Nc1ccccc1C)C(=O)c1ccc(-c2ccc([N+](=O)[O-])cc2)o1	.	21µM*	?	-12%	1%
14	CCCN(CC(=O)Nc1ccccc1OC)C(=O)c1cc2ccccc2o1	-4%	-4%	2%	0%	5%
15	CCOc1ncccc1C(=O)Nc1ccc(-c2ccc3nnc(C)n3n2)cc1	-10%	?	-7%	15%	5%
16	Cc1cccc(N2CCN(CC(=O)N(C)Cc3ccccc3)CC2C)c1 (centres undefined)	4%	-13%	?	11%	.
17	O=C(NCCN1CCN(Cc2ccccc2)CC1)Nc1cc(Cl)cc(Cl)c1	6%	?	?	-40%	3%
18	Cc1ccc(N(O)C(C)(C)C)cc1	.	16µM*	23µM*	8%	.
19	O=C(COC(=O)c1ccc(OC(F)F)cc1)NCc1cccs1	.	?	-15%	0%	0%
20	Cc1ccc(C)c(NS(=O)(=O)c2cc(C(=O)NCc3ccccn3)ccc2C)c1	-2%	29µM*	?	5%	4%

One compound at a time, as listed above. Screens in order: miR-21 reporter | DT40 TDP1 no CPT | TDP1 cell CPT | uPA surface inh | TDP1 inh
Cc1ccc(C)c(NS(=O)(=O)c2cc(C(=O)NCc3ccccn3)ccc2C)c1 is listed with -2% | 29µM* | ? | 5% | 4%
Cc1cccc(N2CCN(CC(=O)N(C)Cc3ccccc3)CC2C)c1 (centres undefined) is listed with 4% | -13% | ? | 11% | .
CCOc1ncccc1C(=O)Nc1ccc(-c2ccc3nnc(C)n3n2)cc1 is listed with -10% | ? | -7% | 15% | 5%
O=C(N/N=C/c1ccc(Cl)cc1)c1cc(-c2cccnc2)nc2ccccc12 is listed with 2% | 7.3µM* | ? | -11% | 0%

Other results:
item	compound	miR-21 reporter	DT40 TDP1 no CPT	TDP1 cell CPT	uPA surface inh	TDP1 inh
21	C=CCNC(=O)c1ccccc1NC(=O)c1ccc(Cl)c(S(=O)(=O)Nc2cc(C)ccc2C)c1	14%	?	18µM*	-15%	2%
22	COc1cccc(OC)c1C(=O)NCCSC1CCCCC1	-5%	18µM*	13µM*	13%	6%
23	Cc1ccccc1NS(=O)(=O)c1cc(C(=O)NCCSC2CCCCC2)ccc1C	21%	?	?	-21%	0%
24	Cc1ccc(C)c(NS(=O)(=O)c2cc(C(=O)NCCSC3CCCCC3)ccc2C)c1	16%	23µM*	?	-18%	2%
25	COc1cc(OC)cc(C(=O)NCCSC2CCCCC2)c1	-7%	-15%	-13%	4%	-3%
26	Cc1ccc(C(=O)COC(=O)CN2C(=O)C3CC=CCC3C2=O)cc1C (centres undefined)	.	-19%	-13%	.	.
27	O=C(NCc1ccccn1)c1cccc(NS(=O)(=O)c2cccc(F)c2)c1	1%	1.5µM*	1.6µM*	3%	4%
28	O=C(NCc1ccccn1)c1cccc(S(=O)(=O)Nc2ccc(F)cc2)c1	.	-29%	-28%	1%	0%
29	CCn1ncc(/C=C/C(=O)Nc2c(C)nn(Cc3ccc(Cl)cc3Cl)c2C)c1C	19%	15µM*	15µM*	.	0%
